Results from ChEMBL document CHEMBL3797125, “Discovery of GluN2A-Selective NMDA Receptor Positive Allosteric Modulators (PAMs): Tuning Deactivation Kinetics via Structure-Based Design” (J Med Chem, 2016).

The chains behind the UniProt entries cited, without tags or fusion partners. Where a name states a change or a piece, a line headed by the entry shows the natural chain unless it says otherwise.
UniProt O15399, whole entry, looked up: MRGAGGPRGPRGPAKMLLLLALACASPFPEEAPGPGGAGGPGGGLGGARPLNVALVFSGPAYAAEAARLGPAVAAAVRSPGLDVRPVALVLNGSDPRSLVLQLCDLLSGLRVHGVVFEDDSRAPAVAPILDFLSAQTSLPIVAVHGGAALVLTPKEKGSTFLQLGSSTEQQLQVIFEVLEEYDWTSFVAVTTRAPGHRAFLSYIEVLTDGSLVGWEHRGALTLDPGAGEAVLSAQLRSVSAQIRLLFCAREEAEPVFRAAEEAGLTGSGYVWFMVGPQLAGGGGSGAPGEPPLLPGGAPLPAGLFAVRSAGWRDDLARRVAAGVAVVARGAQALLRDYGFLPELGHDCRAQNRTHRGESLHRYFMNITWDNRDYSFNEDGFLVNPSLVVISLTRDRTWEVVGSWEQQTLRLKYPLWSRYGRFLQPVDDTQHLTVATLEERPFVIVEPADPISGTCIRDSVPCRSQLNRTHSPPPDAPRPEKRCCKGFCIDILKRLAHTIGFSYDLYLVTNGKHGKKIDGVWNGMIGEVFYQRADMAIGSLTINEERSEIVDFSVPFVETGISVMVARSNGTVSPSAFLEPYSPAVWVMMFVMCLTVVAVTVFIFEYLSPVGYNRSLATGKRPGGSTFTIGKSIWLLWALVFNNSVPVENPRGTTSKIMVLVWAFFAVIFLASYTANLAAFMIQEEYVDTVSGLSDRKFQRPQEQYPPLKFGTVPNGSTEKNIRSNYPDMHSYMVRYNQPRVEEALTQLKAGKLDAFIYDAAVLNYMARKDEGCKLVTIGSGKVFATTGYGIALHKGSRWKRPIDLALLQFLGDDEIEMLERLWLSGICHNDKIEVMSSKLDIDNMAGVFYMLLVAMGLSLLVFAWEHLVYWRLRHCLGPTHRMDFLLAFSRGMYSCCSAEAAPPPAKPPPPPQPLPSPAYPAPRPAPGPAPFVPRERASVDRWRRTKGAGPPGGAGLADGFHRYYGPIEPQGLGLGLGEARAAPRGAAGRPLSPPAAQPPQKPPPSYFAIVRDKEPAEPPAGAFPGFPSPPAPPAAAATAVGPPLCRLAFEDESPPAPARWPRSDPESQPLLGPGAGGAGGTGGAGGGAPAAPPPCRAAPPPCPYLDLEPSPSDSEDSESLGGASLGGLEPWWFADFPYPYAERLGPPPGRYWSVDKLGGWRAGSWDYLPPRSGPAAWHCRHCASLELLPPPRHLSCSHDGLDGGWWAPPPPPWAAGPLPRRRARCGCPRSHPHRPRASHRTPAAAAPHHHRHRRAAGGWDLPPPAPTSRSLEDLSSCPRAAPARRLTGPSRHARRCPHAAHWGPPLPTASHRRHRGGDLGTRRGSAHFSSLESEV
UniProt Q12879, whole entry, looked up: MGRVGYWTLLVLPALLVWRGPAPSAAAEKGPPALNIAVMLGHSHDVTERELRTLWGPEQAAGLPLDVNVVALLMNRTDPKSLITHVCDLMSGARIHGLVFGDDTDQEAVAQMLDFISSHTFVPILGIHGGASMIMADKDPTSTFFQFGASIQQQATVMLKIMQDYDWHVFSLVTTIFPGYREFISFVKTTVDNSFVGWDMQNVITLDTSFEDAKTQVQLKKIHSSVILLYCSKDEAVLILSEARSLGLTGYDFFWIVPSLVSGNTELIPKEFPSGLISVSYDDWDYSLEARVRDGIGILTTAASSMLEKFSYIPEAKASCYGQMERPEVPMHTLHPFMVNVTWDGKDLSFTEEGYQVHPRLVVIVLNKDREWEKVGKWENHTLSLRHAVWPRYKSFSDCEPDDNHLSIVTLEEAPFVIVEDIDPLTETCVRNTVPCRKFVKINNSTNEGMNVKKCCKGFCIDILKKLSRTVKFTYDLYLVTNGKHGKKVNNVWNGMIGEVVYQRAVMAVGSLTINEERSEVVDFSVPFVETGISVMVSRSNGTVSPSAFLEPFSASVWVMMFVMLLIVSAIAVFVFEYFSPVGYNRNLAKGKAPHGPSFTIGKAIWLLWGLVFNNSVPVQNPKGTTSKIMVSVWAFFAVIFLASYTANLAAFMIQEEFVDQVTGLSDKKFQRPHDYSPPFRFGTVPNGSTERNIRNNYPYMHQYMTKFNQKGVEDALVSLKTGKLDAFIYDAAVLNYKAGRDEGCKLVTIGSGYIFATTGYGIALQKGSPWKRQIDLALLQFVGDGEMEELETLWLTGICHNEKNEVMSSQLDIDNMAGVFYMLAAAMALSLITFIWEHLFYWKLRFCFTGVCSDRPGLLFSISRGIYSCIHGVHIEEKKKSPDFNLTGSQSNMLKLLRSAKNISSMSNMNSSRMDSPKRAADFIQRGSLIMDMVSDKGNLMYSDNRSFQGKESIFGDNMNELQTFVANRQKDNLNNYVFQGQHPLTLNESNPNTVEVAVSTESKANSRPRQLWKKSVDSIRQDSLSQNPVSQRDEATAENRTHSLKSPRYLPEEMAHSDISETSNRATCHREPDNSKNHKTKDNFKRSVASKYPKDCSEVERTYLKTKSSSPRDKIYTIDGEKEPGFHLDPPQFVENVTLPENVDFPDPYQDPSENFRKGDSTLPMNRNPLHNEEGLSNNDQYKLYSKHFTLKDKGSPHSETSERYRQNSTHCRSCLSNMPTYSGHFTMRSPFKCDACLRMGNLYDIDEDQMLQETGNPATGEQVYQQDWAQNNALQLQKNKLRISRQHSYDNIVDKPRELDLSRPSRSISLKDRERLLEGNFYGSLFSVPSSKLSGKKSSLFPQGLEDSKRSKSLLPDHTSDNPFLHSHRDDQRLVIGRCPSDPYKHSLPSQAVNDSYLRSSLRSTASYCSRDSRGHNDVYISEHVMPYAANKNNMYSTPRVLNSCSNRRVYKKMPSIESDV
UniProt Q14957: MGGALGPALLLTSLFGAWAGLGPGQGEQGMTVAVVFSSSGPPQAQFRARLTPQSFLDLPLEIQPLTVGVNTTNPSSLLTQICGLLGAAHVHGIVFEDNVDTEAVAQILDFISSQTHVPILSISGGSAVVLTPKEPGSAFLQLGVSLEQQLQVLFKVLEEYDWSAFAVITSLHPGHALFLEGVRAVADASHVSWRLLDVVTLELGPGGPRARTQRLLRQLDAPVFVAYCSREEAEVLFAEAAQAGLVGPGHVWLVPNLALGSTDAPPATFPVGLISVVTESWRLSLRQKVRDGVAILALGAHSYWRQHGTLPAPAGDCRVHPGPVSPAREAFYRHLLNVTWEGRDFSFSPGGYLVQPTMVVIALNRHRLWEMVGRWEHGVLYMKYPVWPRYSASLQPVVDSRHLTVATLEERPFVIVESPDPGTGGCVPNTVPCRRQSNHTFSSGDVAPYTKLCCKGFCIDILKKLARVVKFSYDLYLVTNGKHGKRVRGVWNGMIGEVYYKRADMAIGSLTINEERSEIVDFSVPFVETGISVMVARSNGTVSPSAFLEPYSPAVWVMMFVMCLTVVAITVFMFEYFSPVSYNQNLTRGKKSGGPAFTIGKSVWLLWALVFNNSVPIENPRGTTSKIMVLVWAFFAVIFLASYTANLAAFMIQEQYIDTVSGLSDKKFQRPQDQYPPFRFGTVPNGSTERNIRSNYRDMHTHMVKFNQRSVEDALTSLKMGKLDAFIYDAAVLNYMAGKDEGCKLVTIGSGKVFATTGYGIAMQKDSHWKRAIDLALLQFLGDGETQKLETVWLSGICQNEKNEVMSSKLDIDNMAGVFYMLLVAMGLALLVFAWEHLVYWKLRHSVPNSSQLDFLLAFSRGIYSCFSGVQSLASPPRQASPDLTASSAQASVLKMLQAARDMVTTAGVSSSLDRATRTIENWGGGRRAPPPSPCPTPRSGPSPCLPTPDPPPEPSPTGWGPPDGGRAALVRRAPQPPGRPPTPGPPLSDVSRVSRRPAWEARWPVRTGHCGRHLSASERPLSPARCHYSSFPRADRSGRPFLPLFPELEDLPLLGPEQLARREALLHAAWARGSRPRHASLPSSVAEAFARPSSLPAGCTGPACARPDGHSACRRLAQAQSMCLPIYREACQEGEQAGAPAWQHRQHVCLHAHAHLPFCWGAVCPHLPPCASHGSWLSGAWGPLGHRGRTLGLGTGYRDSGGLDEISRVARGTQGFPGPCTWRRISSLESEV

Tests used:
Assay type in all cases: cell-based
[1] = target: Ionotropic glutamate receptor NMDA 1/2D (Homo sapiens) (UniProt Q05586+O15399); experiment: Positive allosteric modulation of GluN1/GluN2D NMDAR (unknown origin) expressed in Dox-inducible cells at 125 uM by BD calcium indicator dye based-fluorescence analysis in presence of glutamate/glycine
[2] = target: Glutamate NMDA receptor; GRIN1/GRIN2A (Homo sapiens, UniProt Q05586+Q12879); experiment: Positive allosteric modulation of GluN1/GluN2A NMDAR (unknown origin) expressed in CHO cells assessed as slowing of deactivation kinetics at 30 to 1000 nM by whole-cell voltage clamp electrophysiological analysis
[3] = target: Ionotropic glutamate receptor NMDA 1/2C (Homo sapiens, UniProt Q05586+Q14957); experiment: Positive allosteric modulation of GluN1/GluN2C NMDAR (unknown origin) expressed in Dox-inducible cells at 125 uM by BD calcium indicator dye based-fluorescence analysis in presence of glutamate/glycine

%max [1]: 160%
Activity [2]: Active
%max [3]: 233%
Structure (SMILES): N#C[C@@H]1C[C@H]1c1c(C(F)(F)F)sc2nc(Cn3nc(C(F)(F)F)cc3Cl)cc(=O)n12

The source made the active and inactive calls. The rule behind the calls is not given here.
